Literature values as cited in patent US6118050A, “Hydroxyphenylpyruvate dioxygenase gene from arabidopsis and method of screening for inhibitors thereof” (American Cyanamid Company, priority 1997, dated 2000).

System: HPPD
Conditions: hereditary tyrosinemia type 1 (Ellis et al., 1995); cited from earlier work

SMILES: O=C1CCCC(=O)C1C(=O)c1ccc(C(F)(F)F)cc1[N+](=O)[O-] [NTBC, 2-(2-nitro-4-trifluoromethylbenzoyl)-1,3-cyclohexanedione]
- effect on intermediates of tyrosine catabolism that are hepatotoxic: prevents the buildup
